Test results taken from PubChem BioAssay AID1347055 (National Center for Advancing Translational Sciences (NCATS), 2019).
The entries are a selection whose mix differs from that of the whole data set. Some of these compounds have results that are not shown, active ones among them. Inconclusive results are not listed. Active and inactive are the calls of the source. Calls come from the whole dose curve; as a rule, active = well fitted inhibition curve with a large enough effect; inconclusive = small, poorly fitted or top-dose-only effect, or effect the other way; inactive = flat fitted curve, though single readings scatter.

By UniProt entry, the sequences of proteins in these tests, tags left out.
UniProt P07954, whole entry: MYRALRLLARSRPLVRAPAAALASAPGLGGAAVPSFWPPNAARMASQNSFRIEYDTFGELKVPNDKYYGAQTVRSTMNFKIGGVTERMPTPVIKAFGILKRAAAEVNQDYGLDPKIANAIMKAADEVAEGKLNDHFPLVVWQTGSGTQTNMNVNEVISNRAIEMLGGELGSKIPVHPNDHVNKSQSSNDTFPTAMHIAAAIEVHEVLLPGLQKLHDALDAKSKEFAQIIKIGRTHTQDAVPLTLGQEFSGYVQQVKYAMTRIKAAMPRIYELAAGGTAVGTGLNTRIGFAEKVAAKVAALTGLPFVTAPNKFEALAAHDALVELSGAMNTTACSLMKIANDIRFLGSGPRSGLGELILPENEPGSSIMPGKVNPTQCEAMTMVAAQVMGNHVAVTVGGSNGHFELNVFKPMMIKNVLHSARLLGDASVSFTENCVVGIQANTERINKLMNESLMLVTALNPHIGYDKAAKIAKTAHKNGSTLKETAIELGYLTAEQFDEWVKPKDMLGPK

Molecular target: Fumarate hydratase, mitochondrial (Homo sapiens) (UniProt P07954)
Assay: Identification of activators of human fumarate hydratase by quantitative high-throughput screening; note: the screen sought activators but most active calls are inhibition curves; nearly all actives have a fitted effect of over 45% in size
Details: FH coupled MDH/diaphorase resazurin fluorescence, 15 min; at 79.9 µM (top of the series)
Excerpt: Fumarate hydratase (FH) is a metabolic enzyme that is part of the Krebs-cycle, and reversibly catalyzes the hydration of fumarate to malate. Mutations of the FH gene have been associated with fumarate hydratase deficiency (FHD), hereditary leiomyomatosis, renal cell cancer (HLRCC), and other diseases. Currently there are no high-quality small molecule probes for studying human fumarate hydratase. To address this, we developed a quantitative high throughput screening (qHTS) FH assay and screened a total of 57,037 compounds in dose-response. While no inhibitors of FH were confirmed, a series of phenyl-pyrrolo-pyrimidine-diones (12 compounds) were identified as activators of human fumarate hydratase. […] The binding of two compounds from the series to human fumarate hydratase was confirmed by microscale thermophoresis. The low hit rate in this screening campaign confirmed that FH is a "tough target" to modulate, and the small molecule activators of human fumarate hydratase reported here may serve as a starting point for further optimization and development into cellular probes of human FH and potential drug candidates.
For primary high-throughput screen, 3 ul of FH solution (containing 13.33nM human fumarate hydratase, 13.33IU/ml malic dehydrogenase, 0.2mM NAD, 0.067mg/ml diaphorase and 0.067mM resazurin in the assay buffer (50 mM Tris pH 8.0, 5 mM MgCl2, 0.01% Brij 3) was dispensed into each well in a black solid bottom 1536-well assay plate (Greiner Bio-One) using a BioRAPTR FRD dispenser (Beckman Coulter, Brea, CA). A 1536-well pintool dispenser outfitted with 20 nl pins (Wako Automation, San Diego, CA) was used to transfer 20 nL of DMSO-solubilized compound (Cherrypick plates) to each 1536-well assay plate. Each compound was screened at five concentrations: 15 nM, 151 nM, 1.5 uM, 15.4 uM, 76.9 uM. Following compound transfer, plates were incubated in room temperature for 10 minutes. 1 uL of substrate solution containing fumaric acid (160 uM) was dispensed via BioRAPTR FRD to initiate the reaction. Plates were immediately transferred to a ViewLux microplate imager (PerkinElmer, Waltham, MA), and any resulting resorufin fluorescence was measured (exitation/emission, 525/598 nm) at 0 and 15 minutes. The exposure time is 1 second. Fluorescence from each well was normalized using enzyme-free and DMSO-treated control wells on each plate, and changes in fluorescence (delta RFU) were calculated using the difference in fluorescent signal for each well at 15 minutes versus 0 minutes.
% is set by controls: 0 for no effect and ±100 for the full control effect.

SMILES | activity change, negative = inhibition
CN(C)C1(CNC(=O)c2ccccc2F)CCCCC1 | inactive: -4.16%
CN(C)C1(CNC(=O)c2cccc(Cl)c2)CCCCC1 | inactive: 4.18%
CCOc1cccc(C(=O)NCC2(N(C)C)CCCCC2)c1 | inactive: -10.5%
CCCCOc1ccccc1C(=O)NCC1(N(C)C)CCCCC1 | inactive: -32.6%
CN(C)C1(CNC(=O)c2ccccc2[N+](=O)[O-])CCCCC1 | inactive: 1.38%
COc1ccc(C(=O)NCC2(N(C)C)CCCCC2)cc1Cl | inactive: -0.847%
CC(C)Oc1ccc(C(=O)NCC2(N(C)C)CCCCC2)cc1 | inactive: 5.92%
Cc1cccc(C(=O)NCC2(N(C)C)CCCCC2)c1 | inactive: 7.32%
COc1cc(C(=O)NCC2(N(C)C)CCCCC2)cc(OC)c1OC | inactive: -11.6%
CC(C)COc1ccc(C(=O)NCC2(N(C)C)CCCCC2)cc1 | inactive: -7.57%
COc1cccc(C(=O)NCC2(N3CCOCC3)CCCCC2)c1 | inactive: -2.84%
